From ChEMBL document CHEMBL1129336, “Ryanodine action at calcium release channels. 2. relation to substituents of the cyclohexane ring” (J Med Chem, 1996)

By UniProt entry, the sequences of proteins in these tests, tags left out.
UniProt A2AGL3, whole entry: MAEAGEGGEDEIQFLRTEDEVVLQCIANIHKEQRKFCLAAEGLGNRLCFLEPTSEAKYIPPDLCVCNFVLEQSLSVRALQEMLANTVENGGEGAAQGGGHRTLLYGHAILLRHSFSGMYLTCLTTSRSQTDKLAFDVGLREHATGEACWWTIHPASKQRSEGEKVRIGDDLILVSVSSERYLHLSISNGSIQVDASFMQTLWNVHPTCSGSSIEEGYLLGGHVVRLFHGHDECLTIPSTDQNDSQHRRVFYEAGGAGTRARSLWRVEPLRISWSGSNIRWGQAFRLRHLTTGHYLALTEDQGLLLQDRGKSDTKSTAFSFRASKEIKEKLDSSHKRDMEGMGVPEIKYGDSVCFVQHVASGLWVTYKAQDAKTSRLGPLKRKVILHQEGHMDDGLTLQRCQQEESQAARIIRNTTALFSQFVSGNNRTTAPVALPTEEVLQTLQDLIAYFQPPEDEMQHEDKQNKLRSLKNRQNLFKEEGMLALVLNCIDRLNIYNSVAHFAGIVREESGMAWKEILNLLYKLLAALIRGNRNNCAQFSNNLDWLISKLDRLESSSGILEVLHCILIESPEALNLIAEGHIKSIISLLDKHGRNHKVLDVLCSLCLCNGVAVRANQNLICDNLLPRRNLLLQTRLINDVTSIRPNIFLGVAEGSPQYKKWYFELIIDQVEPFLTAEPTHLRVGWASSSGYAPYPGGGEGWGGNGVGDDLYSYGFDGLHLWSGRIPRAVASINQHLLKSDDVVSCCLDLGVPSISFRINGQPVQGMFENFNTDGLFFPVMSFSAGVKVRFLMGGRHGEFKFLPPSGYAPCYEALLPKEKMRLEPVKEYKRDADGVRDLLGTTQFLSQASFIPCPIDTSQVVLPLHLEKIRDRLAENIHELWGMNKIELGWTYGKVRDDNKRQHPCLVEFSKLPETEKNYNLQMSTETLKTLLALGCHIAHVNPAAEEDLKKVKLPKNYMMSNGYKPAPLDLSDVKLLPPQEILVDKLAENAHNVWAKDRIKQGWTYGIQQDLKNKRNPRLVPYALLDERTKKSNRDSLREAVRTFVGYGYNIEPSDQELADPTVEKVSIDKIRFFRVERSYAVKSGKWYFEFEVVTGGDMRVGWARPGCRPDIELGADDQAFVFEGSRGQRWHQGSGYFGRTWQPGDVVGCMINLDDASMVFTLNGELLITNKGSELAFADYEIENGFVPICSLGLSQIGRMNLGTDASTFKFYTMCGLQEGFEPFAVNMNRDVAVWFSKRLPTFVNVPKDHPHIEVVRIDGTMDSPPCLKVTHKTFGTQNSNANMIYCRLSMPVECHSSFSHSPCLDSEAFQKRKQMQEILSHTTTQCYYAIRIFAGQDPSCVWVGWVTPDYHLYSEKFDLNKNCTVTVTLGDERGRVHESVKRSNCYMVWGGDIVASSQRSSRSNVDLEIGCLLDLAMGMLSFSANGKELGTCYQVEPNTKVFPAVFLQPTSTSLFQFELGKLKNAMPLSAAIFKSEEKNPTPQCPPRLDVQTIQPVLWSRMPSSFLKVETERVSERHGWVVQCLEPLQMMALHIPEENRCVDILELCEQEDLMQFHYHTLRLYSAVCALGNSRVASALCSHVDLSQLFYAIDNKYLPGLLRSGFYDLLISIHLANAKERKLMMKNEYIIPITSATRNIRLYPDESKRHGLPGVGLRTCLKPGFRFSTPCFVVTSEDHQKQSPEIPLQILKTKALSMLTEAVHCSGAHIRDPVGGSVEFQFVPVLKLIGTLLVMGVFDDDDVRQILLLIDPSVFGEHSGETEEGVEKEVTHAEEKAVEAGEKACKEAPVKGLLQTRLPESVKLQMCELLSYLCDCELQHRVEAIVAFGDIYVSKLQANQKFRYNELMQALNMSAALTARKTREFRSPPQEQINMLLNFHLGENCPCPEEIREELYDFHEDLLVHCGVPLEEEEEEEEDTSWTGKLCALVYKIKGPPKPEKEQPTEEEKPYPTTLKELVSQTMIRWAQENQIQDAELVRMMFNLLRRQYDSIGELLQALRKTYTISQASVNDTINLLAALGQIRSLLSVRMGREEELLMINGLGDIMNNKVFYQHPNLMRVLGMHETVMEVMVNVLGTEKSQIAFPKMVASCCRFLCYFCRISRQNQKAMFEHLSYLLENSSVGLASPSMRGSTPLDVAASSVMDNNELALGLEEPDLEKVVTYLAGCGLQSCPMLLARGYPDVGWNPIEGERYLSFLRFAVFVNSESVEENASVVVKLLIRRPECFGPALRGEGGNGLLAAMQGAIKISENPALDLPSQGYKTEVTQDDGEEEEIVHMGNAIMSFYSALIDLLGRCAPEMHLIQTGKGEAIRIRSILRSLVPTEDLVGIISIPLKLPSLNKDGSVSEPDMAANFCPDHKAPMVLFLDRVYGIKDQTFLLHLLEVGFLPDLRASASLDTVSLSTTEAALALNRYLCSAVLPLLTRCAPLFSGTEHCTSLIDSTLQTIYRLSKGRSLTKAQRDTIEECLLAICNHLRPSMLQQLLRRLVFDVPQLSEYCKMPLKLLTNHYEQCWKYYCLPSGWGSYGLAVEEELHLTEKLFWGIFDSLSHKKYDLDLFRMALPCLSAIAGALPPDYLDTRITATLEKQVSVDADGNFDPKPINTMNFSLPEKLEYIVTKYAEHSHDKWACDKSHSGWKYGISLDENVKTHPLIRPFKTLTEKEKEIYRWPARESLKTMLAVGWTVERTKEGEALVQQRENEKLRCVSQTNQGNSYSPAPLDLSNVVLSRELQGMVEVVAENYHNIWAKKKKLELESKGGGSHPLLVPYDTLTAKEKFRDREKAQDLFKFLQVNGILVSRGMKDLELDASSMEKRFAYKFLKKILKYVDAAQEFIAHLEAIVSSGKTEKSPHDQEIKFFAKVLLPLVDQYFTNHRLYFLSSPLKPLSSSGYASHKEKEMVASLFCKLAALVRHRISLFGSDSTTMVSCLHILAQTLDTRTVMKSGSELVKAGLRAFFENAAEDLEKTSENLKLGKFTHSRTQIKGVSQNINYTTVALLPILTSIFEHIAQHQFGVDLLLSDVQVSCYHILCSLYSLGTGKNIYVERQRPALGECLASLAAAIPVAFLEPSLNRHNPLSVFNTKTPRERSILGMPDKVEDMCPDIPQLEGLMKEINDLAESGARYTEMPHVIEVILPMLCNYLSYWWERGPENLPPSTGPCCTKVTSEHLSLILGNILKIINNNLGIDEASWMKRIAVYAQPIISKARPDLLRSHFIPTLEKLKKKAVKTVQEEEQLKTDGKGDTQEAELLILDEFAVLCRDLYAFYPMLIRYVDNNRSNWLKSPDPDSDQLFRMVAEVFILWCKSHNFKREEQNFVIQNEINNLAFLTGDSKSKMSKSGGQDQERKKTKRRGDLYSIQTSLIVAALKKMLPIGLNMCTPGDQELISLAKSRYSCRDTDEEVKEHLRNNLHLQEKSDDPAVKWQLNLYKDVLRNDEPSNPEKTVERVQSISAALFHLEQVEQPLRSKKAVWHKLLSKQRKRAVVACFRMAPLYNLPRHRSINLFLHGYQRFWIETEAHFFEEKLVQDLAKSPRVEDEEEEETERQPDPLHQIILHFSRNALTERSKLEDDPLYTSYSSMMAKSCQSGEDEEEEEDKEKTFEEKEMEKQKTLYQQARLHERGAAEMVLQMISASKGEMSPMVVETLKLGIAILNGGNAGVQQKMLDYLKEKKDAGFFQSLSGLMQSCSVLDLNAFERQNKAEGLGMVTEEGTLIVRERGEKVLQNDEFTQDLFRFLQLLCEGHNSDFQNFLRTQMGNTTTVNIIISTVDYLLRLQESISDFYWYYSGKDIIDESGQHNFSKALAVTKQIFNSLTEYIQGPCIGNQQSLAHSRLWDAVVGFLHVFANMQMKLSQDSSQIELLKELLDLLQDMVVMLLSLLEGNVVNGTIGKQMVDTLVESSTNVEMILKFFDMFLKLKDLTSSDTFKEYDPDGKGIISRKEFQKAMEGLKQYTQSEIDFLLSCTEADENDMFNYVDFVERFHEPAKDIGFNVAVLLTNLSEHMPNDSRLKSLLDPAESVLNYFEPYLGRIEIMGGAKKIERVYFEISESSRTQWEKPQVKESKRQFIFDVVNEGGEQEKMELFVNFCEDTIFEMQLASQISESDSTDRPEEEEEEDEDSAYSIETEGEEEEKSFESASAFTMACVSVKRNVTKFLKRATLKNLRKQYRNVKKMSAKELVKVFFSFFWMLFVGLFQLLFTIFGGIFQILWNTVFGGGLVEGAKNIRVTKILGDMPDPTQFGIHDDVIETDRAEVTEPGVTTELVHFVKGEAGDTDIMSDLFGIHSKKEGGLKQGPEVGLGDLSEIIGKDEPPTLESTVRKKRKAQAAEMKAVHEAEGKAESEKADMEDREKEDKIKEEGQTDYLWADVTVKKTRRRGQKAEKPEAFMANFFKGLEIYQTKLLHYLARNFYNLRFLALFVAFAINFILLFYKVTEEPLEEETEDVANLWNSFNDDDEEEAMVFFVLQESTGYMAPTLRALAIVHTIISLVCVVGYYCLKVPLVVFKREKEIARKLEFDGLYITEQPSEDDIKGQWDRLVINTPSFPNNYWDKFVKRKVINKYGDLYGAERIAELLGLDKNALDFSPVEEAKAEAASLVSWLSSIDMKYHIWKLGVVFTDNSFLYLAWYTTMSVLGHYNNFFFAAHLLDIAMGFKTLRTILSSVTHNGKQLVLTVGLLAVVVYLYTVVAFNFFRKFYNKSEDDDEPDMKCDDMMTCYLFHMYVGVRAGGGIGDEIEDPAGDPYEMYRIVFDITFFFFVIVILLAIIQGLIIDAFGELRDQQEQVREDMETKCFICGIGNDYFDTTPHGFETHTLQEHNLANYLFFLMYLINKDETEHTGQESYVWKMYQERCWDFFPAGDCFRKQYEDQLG

Molecular target: Ryanodine receptor 3 (Mus musculus) (UniProt A2AGL3)
Experiment: Displacement of [3H]ryanodine from ryanodine receptor(ryr) of Mouse brain

Work on `CC1CCC2(O)C3(C)CC4(O)OC2(C1O)C1(O)C3(O)C(OC(=O)c2ccc[nH]2)C(O)(C(C)C)C41C` (stereo unspecified) yielded a Relative activity of 69.
